Laboratory results as given in BindingDB's records for doi:10.3109/14756366.2010.616860 (Slovak University of Technology, 2012).
pIC50: −log10 of the molar value.

Target: T1, Serine protease 1 (Bos taurus, UniProt P00760)
T1 sequence (P00760 whole entry): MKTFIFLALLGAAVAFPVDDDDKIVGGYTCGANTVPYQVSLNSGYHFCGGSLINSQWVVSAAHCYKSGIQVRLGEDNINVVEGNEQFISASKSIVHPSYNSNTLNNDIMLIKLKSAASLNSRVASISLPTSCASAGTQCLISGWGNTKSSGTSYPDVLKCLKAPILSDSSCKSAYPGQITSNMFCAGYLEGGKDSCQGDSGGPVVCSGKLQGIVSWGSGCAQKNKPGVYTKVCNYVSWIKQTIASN
Test: Enzyme Assay
Conditions: pH 8
Description: Data scanning time was set to the 1st and 61st minute after the reaction start. Rutin, esculin, phloridzin and their esters were initially solubilized at a concentration of 10 mM in dimethyl sulphoxide (DMSO) and subsequently incorporated in the reaction mixture to final concentrations in the range of 1-50 μM. Samples were run in triplicate in 96-well plates by MRX microplate reader. Each experiment was performed in triplicate.

O=c1c(O)c(-c2ccc(O)c(O)c2)oc2cc(O)cc(O)c12 [2-(3,4-dihydroxyphenyl)-3,5,7-trihydroxy-chromone;hydrate]
pIC50: 5.00
